Measurements published in patent publication US20140045746A1 (Merck Sharp & Dohme Corp., priority 2012, published 2014).

The chains behind the UniProt entries cited, without tags or fusion partners.
UniProt O14842, whole entry: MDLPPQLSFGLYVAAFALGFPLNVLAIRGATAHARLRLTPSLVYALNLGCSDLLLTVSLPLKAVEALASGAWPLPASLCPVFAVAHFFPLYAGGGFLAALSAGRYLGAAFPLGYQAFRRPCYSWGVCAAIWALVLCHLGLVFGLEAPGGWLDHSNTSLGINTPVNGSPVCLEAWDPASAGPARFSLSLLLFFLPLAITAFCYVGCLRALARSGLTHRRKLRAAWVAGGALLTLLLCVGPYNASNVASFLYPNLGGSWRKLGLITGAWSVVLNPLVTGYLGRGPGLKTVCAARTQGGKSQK

Legend:
[1] = molecular target: T1, hGPR40 (Homo sapiens, UniProt O14842); test: GPR40 Inositol Phosphate Turnover (IP1) Assay; type: cell-based; set-up: expressed in transfected cells; host or cells: HEK cells stably expressing the aequorin reporter; conditions: HEK cells stably expressing human GPR40; 0% serum; read-out: hGPR40 IP1 EC50 (0% serum)
Text: (§1) Human and mouse GPR40 stable cell-lines were generated in CHO cells stably expressing NFAT BLA (Beta-lactamase). A human GPR40 stable cell-line was generated in HEK cells stably expressing the aequorin expressing reporter. The expression plasmids were transfected using lipofectamine (Life Technologies) following manufacturer's instructions. Stable cell-lines were generated following drug selection.

[2] = molecular target: T1, hGPR40; test: GPR40 FLIPR assay (agonist-induced calcium mobilization); type: cell-based; set-up: expressed in transfected cells; host or cells: CHO cells stably expressing NFAT BLA (beta-lactamase); conditions: GPR40/CHO NFAT BLA cells;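 also: calcium mobilization in the cells read as fluorescence of fluo-4 AM loaded cells on FLIPR after compound addition, cells preloaded with dye 100 min at room temperature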
Text: as §1

Structure (SMILES) | EC50 [1] [nM] | EC50 [2] [nM]
Cc1c(COc2cc3c(cn2)[C@H]2[C@@H](C3)[C@@H]2C(=O)O)cccc1-n1c(C(F)(F)F)nc2ccc(F)c(F)c21 [Compound 32-8, (5aR,6S,6aS)-3-((3-(6,7-difluoro-2-(trifluoromethyl)-1H-benzo[d]imidazol-1-yl)-2-methylbenzyl)oxy)-5,5a,6,6a-tetrahydrocyclopropa[4,5]cyclopenta[1,2-c]pyridine-6-carboxylic acid] | 3.5 | 
Cc1cc(OCC2(F)CCOCC2)cc(C)c1-c1cccc(COc2cc3c(cn2)[C@H]2[C@@H](C3)[C@@H]2C(=O)O)c1 [Compound 9-8, (5aR,6S,6aS)-3-((4′-((4-fluoro-tetrahydro-2H-pyran-4-yl)methoxy)-2′,6′-dimethyl-[1,1′-biphenyl]-3-yl)methoxy)-5,5a,6,6a-tetrahydrocyclo-propa[4,5] cyclopenta[1,2-c] pyridine-6-carboxylic acid] |  | 23
Cc1nc(OCCCC(C)(C)O)ccc1-c1ccc(F)c(COc2cc3c(cn2)[C@H]2[C@@H](C3)[C@@H]2C(=O)O)c1 [Compound 7-7, (5aR,6S,6aS)-3-((2-fluoro-5-(6-((4-hydroxy-4-methylpentyl)oxy)-2-methylpyridin-3-yl)benzyl)oxy)-5,5a,6,6a-tetrahydrocyclopropa[4,5]cyclopenta[1,2-c]pyridine-6-carboxylic acid] |  | 23
CC(C)(O)CCOc1cc(C(F)(F)F)c(-c2ccc(F)c(COc3cc4c(cn3)[C@H]3[C@@H](C4)[C@@H]3C(=O)O)c2)cn1 [Compound 20-7, (5aR,6S,6aS)-3-((2-fluoro-5-(6-(3-hydroxy-3-methylbutoxy)-4-(trifluoromethyl)pyridin-3-yl)benzyl)oxy)-5,5a,6,6a-tetra-hydrocyclo-propa[4,5] cyclopenta [1,2-c]pyridine-6-carboxylic acid] |  | 23
